Amino acid sequences for entries named in this document (tags omitted). Residues count along the entry.
UniProt Q91AV1, 26-734 limits assumed: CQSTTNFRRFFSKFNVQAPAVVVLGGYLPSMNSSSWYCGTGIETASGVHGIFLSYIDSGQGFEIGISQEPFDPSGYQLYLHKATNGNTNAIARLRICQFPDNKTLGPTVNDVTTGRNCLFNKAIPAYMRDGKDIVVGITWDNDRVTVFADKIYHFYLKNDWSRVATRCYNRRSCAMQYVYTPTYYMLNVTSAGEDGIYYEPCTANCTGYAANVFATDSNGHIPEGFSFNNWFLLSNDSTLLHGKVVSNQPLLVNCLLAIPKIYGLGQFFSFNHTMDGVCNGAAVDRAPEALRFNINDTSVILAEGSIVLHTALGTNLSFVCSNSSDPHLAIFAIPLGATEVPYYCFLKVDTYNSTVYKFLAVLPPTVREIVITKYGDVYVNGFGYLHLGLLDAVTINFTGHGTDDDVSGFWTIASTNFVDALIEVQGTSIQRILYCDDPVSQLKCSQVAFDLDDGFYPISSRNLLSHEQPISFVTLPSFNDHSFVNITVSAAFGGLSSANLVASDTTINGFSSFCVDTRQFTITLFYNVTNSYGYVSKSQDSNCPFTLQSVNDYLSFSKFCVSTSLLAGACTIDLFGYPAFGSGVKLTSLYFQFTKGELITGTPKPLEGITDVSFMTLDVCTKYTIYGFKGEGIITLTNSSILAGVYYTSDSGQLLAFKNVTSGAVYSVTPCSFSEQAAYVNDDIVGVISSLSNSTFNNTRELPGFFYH

In PMC9965349 (Viruses, 2023):

What was measured:
PEDV S1 protein [1] = biological target: T1, PEDV S1 protein (Porcine epidemic diarrhea virus, UniProt Q91AV1); test: ELISA affinity of his-labeled peptides to coated PEDV S1 protein; assay type: binding; details: PEDV S1 coated at 10 μg/mL; his-labeled peptide 1 μg/mL, 1 h 37 °C; anti-his mAb 1:1000; TMB; three parallel groups
PEDV S1 protein [2] = biological target: T1, PEDV S1 protein; test: SPR kinetic measurement (Biacore X100, CM5 chip); details: 1:1 binding fit, peptide 0.78125-25 μM, HBS-EP pH 7.4, 30 μL/min, 120 s association, 120 s dissociation

Row | Molecule | OD value at 450 nm (ELISA) (PEDV S1 protein [1]) | Kd (PEDV S1 protein [2])
1 | FWKPKR [compound 114180] | 0.233 | –
2 | CC[C@H](C)[C@H](NC(=O)[C@H](CCCNC(=N)N)NC(=O)[C@H](Cc1c[nH]cn1)NC(=O)[C@H](CCCCN)NC(=O)[C@H](Cc1c[nH]c2ccccc12)NC(=O)[C@H](Cc1ccccc1)NC(=O)[C@@H](NC(=O)[C@H](CCCNC(=N)N)NC(=O)[C@H](Cc1c[nH]cn1)NC(=O)[C@H](CCCCN)NC(=O)[C@H](Cc1c[nH]c2ccccc12)NC(=O)[C@@H](N)Cc1ccccc1)[C@@H](C)CC)C(=O)O [compound 111740] | – | 0.01975 s⁻¹
